“And” between values parts separate entries of the source, which are not always exact repeats. Identical values can stand only once.
Key:
Assay type in all cases: cell-based
[1] = test system: T. brucei brucei AnTat 1.9; experiment: In vitro antitrypanosomal activity, Alamar Blue assay; conditions: SI = CC50 HepG2 / IC50 Trypanosoma brucei brucei
Procedure: The effects of the tested compounds on the growth of T. brucei brucei were assessed using an Alamar Blue® assay described by Räz et al.[49] T. brucei brucei AnTat 1.9 (IMTA, Antwerpen, Belgium) was cultured in MEM with Earle’s salts, supplemented according to the protocol of Baltz et al.[50] with the following modifications: 0.5 mM mercaptoethanol (Sigma Aldrich), 1.5 mM L-cysteine (Sigma Aldrich), 0.05 mM bathocuproine sulphate (Sigma Aldrich), and 20% heat-inactivated horse serum (Gibco, France) at 37 °C and 5% CO2. Samples were incubated at an average density of 2000 parasites/well in sterile 96-wells plates (Fisher, France) with various concentrations of compounds dissolved in 0.9% NaCl. All doses were tested in duplicate. Appropriate controls treated with solvents 0.9% NaCl or DMSO or with suramin, pentamidine, eflornithine, and fexinidazole (reference drugs purchased from Sigma Aldrich and Fluorochem, UK) were added to each set of experiments. After 69 h incubation period at 37 °C, 10 µl of the viability marker Alamar Blue (Fisher) was added to each well, and the plates were incubated for 5 h. The plates were read in a PerkinElmer ENSPIRE (Germany) microplate reader using an excitation wavelength of 530 nm and an emission wavelength of 590 nm. […] IC50 values were calculated using a nonlinear regression analysis of dose-response curves performed using GraphPad Prism software (La Jolla, CA). IC50 values were calculated from three independent experiments.

[2] = test system: P. falciparum CQ-sensitive strain 3D7; experiment: In vitro antiplasmodial activity, SYBR Green I fluorescence-based method, strain 3D7; conditions: SI = CC50 HepG2 / IC50 P. falciparum 3D7
Procedure: (§1) The in vitro antiplasmodial activities were tested over concentrations ranging from […] against culture-adapted P. falciparum reference strains 3D7 and W2. […] The parasites were cultivated in RPMI medium (Sigma-Aldrich, Lyon, France) supplemented with 0.5% Albumax I (Life Technologies Corporation, Paisley, UK), hypoxanthine (Sigma-Aldrich), and gentamicin (Sigma-Aldrich) with human erythrocytes and were incubated at 37 °C in a candle jar, as described previously[43] .The P. falciparum drug susceptibility test was carried out in 96-well flat-bottom sterile plates in a final volume of 250 µl. After 48 h incubation period with the drugs, quantities of DNA in treated and control cultures of parasites in human erythrocytes were quantified using the SYBR Green I (Sigma-Aldrich) fluorescence-based method[44]^,[45]. Briefly, after incubation, plates were frozen at −20 °C until use. Plates were then thawed for 2 h at room temperature, and 100 µl of each homogenised culture was transferred to a well of a 96-well flat-bottom sterile black plate (Nunc, Inc., Rochester, NY) that contained 100 µl of the SYBR Green I lysis buffer (2xSYBR Green, 20 mM Tris base pH 7.5, 5 mM EDTA, 0.008% w/v saponin, 0.08% w/v Triton X-100). […] Plates were incubated for 1 h at room temperature and then read on a fluorescence plate reader (Tecan, Grödig, Austria) using excitation and emission wavelengths of 485 and 535 nm, respectively. IC50 values were calculated by non-linear regression analysis of data from dose-response curves, using TableCurve 2D version 5.0 software (Systat Software, San Jose, CA). IC50 values are reported as means calculated from three independent experiments.

[3] = test system: P. falciparum CQ-resistant strain W2; experiment: In vitro antiplasmodial activity, SYBR Green I fluorescence-based method, strain W2; conditions: SI = CC50 HepG2 / IC50 P. falciparum W2
Procedure: as §1

Row | SMILES | Selectivity index HepG2/Tryp. [1] | Selectivity index HepG2/3D7 [2] | Selectivity index HepG2/W2 [3]
1 | c1ccc2c(-c3ccc(CNCCCN4CCOCC4)cc3)cc(-c3ccc(CNCCCN4CCOCC4)cc3)nc2c1 [Compound 1g, 2,4-Bis{4-[(3-morpholinopropyl)aminomethyl]phenyl}quinoline] | 3.87 | 14.85 | –
2 | CN(C)CCCNCc1ccc(-c2nc(-c3ccc(CNCCCN(C)C)cc3)c3ccccc3n2)cc1 [Compound 3b, 2,4-Bis{4-[(3-dimethylaminopropyl)aminomethyl]phenyl}quinazoline] | 3.40 | 6.47 | –
3 | COc1ccc2nc(-c3ccc(CNCCN(C)C)cc3)nc(-c3ccc(CNCCN(C)C)cc3)c2c1 [Compound 3j, 6-Methoxy-2,4-bis{4-[(2-dimethylaminoethyl)aminomethyl]phenyl}quinazoline] | – | 0.77 | 2.54
4 | CN(C)CCNCc1ccc(-c2cc(-c3ccc(CNCCN(C)C)cc3)c3ccccc3n2)cc1 [Compound 1c, 2,4-Bis{4-[(2-dimethylaminoethyl)aminomethyl]phenyl}quinoline] | 2.09 | 97 and 96.88 | 9.11
5 | CN(C)CCCNCc1ccc(-c2cc3ccccc3c(-c3ccc(CNCCCN(C)C)cc3)n2)cc1 [Compound 2b, 1,3-Bis{4-[(3-dimethylaminopropyl)aminomethyl]phenyl}isoquinoline] | 9.91 | 1.90 | 1.15
6 | COc1ccc2nc(-c3ccc(CNCCCCN(C)C)cc3)nc(-c3ccc(CNCCCCN(C)C)cc3)c2c1 [Compound 3h, 6-Methoxy-2,4-bis{4-[(4-dimethylaminobutyl)aminomethyl]phenyl}quinazoline] | 43 and 43.22 | 3.04 | 3.17
7 | CN(C)CCCNCc1ccc(-c2cc(-c3ccc(CNCCCN(C)C)cc3)c3ccccc3n2)cc1 [Compound 1b, 2,4-Bis{4-[(3-dimethylaminopropyl)aminomethyl]phenyl}quinoline] | 5.00 | 8.70 | –
8 | c1ccc2c(-c3ccc(CNCCN4CCOCC4)cc3)nc(-c3ccc(CNCCN4CCOCC4)cc3)nc2c1 [Compound 3g, 2,4-Bis{4-[(2-morpholinoethyl)aminomethyl]phenyl}quinazoline] | 3.21 | 27.20 | –
9 | c1cc(CNCCN2CCOCC2)cc(-c2cc(-c3cccc(CNCCN4CCOCC4)c3)c3ccccc3n2)c1 [Compound 1t, 2,4-Bis{3-[(2-morpholinoethyl)aminomethyl]phenyl}quinoline] | 8.54 | 17.09 | –
10 | c1cc(CNCCCN2CCOCC2)cc(-c2cc(-c3cccc(CNCCCN4CCOCC4)c3)c3ccccc3n2)c1 [Compound 1s, 2,4-Bis{3-[(3-morpholinopropyl)aminomethyl]phenyl}quinoline] | 3.60 | 12.52 | –
11 | COc1ccc2nc(-c3ccc(CNCCCN(C)C)cc3)nc(-c3ccc(CNCCCN(C)C)cc3)c2c1 [Compound 3i, 6-Methoxy-2,4-bis{4-[(3-dimethylaminopropyl)aminomethyl]phenyl}quinazoline] | – | 0.48 | 0.44
12 | COc1ccc2c(-c3ccc(CNCCCN(C)C)cc3)nc(-c3ccc(CNCCCN(C)C)cc3)cc2c1 [Compound 2j, 6-Methoxy-1,3-bis{4-[(3-dimethylaminopropyl)aminomethyl]phenyl}isoquinoline] | 3.66 | 0.30 | 0.42
13 | CN1CCN(CCNCc2ccc(-c3cc(-c4ccc(CNCCN5CCN(C)CC5)cc4)c4ccccc4n3)cc2)CC1 [Compound 1f, 2,4-Bis{4-[(2–(4-methylpiperazin-1-yl)ethyl)aminomethyl]phenyl}quinoline] | 4.13 | 1.69 | 31.46
14 | COc1ccc2cc(-c3ccc(CNCCCCN(C)C)cc3)nc(-c3ccc(CNCCCCN(C)C)cc3)c2c1 [Compound 2e, 7-Methoxy-1,3-bis{4-[(4-dimethylaminobutyl)aminomethyl]phenyl}isoquinoline] | 17.4 | 2.17 | 1.58
15 | c1ccc2c(-c3ccc(CNCCCN4CCOCC4)cc3)nc(-c3ccc(CNCCCN4CCOCC4)cc3)nc2c1 [Compound 3f, 2,4-Bis{4-[(3-morpholinopropyl)aminomethyl]phenyl}quinazoline] | 5.58 | 10.76 | –
16 | CN1CCN(CCCNCc2ccc(-c3cc(-c4ccc(CNCCCN5CCN(C)CC5)cc4)c4ccccc4n3)cc2)CC1 [Compound 1e, 2,4-Bis{4-[(3–(4-methylpiperazin-1-yl)propyl)aminomethyl]phenyl}quinoline] | 6.36 | 24.10 | 8.78
17 | COc1ccc2cc(-c3ccc(CNCCCN(C)C)cc3)nc(-c3ccc(CNCCCN(C)C)cc3)c2c1 [Compound 2f, 7-Methoxy-1,3-bis{4-[(3-dimethylaminopropyl)aminomethyl]phenyl}isoquinoline] | 4.07 | 1.44 | 0.45
18 | c1cc(CNCCN2CCOCC2)cc(-c2nc(-c3cccc(CNCCN4CCOCC4)c3)c3ccccc3n2)c1 [Compound 3v, 2,4-Bis{3-[(2-morpholinoethyl)aminomethyl]phenyl}quinazoline] | 4.72 | 17.94 | –
19 | COc1ccc2c(-c3ccc(CNCCCCN(C)C)cc3)nc(-c3ccc(CNCCCCN(C)C)cc3)nc2c1 [Compound 3m, 7-Methoxy-2,4-bis{4-[(4-dimethylaminobutyl)aminomethyl]phenyl}quinazoline] | 33.51 | 21.30 | 5.95
20 | COc1ccc2c(-c3ccc(CNCCCCN(C)C)cc3)nc(-c3ccc(CNCCCCN(C)C)cc3)cc2c1 [Compound 2i, 6-Methoxy-1,3-bis{4-[(4-dimethylaminobutyl)aminomethyl]phenyl}isoquinoline] | 16.81 | 1.27 | 4.48

— article PMC6968685 (Journal of Enzyme Inhibition and Medicinal Chemistry, 2020)
